Consider 12 compounds from US10588952B2, “Conjugate vaccine using trimming function of ERAP1” (SUMITOMO DAINIPPON PHARMA CO., LTD., priority 2013, dated 2020).

Amino acid sequences for entries named in this document (tags omitted). A change or cut given only in a name is not applied to a line headed by its entry.
UniProt Q9NZ08: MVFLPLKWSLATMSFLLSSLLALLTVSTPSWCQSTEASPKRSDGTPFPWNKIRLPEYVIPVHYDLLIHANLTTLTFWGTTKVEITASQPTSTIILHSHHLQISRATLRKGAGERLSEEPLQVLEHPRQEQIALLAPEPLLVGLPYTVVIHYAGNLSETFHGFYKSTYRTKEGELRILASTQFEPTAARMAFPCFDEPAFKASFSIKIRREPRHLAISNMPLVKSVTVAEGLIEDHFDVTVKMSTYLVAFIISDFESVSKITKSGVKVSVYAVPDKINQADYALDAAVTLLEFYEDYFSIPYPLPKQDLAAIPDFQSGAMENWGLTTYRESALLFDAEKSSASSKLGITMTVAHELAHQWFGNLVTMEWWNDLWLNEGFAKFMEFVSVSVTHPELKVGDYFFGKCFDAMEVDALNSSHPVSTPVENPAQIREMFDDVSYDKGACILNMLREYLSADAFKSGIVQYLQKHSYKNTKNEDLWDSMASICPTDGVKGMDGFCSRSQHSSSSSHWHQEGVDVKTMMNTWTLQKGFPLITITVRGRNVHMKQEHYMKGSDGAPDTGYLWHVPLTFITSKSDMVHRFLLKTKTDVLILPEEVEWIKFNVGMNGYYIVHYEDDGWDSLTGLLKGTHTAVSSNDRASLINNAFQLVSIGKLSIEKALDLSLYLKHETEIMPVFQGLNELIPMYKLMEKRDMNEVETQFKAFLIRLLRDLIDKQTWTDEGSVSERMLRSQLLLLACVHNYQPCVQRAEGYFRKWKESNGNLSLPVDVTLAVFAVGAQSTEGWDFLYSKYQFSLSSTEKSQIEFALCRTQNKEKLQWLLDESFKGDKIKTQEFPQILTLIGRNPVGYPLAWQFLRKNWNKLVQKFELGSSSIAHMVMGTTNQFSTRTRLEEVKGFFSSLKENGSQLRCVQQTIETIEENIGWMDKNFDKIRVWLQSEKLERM

The target in test [1] is T1, ERAP1 (Homo sapiens, UniProt Q9NZ08). Kind of test: Test of trimming of N-terminal amino acid by ERAP1 (Experimental Example 1, peptides of Examples 1-20). To be noted: ERAP1 solution 50 ng/ml, pH 8.0 Tris.HCl buffer, room temperature, 1.0 hr later. It counts as biochemical.
Test [2] addresses T1, ERAP1. Kind of test: Test of trimming of N-terminal amino acid by ERAP1 (Experimental Example 6, Examples 31-49). Conditions: ERAP1 solution 50 μg/ml, pH 8.0 Tris.HCl buffer, 30° C., 1.0 hr later. It counts as biochemical.
The subject of test [3] is HLA-A0201 transgenic mouse. Kind of test: In vivo CTL induction ability, IFNγ ELISPOT, formula (4) versus long chain peptides SEQ ID NOs: 231, 232 (Comparative Example 1). To be noted: for IFNγ production specific to the peptide of interest shown by SEQ ID NO: 19 / IFNγ production specific to the peptide of interest shown by SEQ ID NO: 53: formula (4) 250 μg/site, SEQ ID NO: 231 or 232 225 μg/site, with IFA.

For test [4], the system named is HLA-A0201 transgenic mouse. As to the kind of experiment: In vivo CTL induction ability, IFNγ ELISPOT, formula (4) versus long chain peptides SEQ ID NOs: 233, 234 (Comparative Example 2). Conditions: for number of cells that responded to SEQ ID NO: 53 compared to mouse administered with the compound of formula (4): 265 μg/site versus formula (4) 250 μg/site; for IFNγ production specific to the peptide of interest shown by SEQ ID NO: 19 / IFNγ production specific to the peptide of interest shown by SEQ ID NO: 53: formula (4) 250 μg/site, SEQ ID NO: 233 or 234 265 μg/site, with IFA.

The mark [5] stands for this setting: 225 μg/site versus formula (4) 250 μg/site.

`CC[C@H](C)[C@H](NC(=O)[C@H](CCCCN)NC(=O)[C@H](CC(N)=O)NC(=O)[C@@H](N)CS)C(=O)N[C@@H](Cc1ccccc1)C(=O)NCC(=O)N[C@@H](CO)C(=O)N[C@@H](CC(C)C)C(=O)N[C@@H](C)C(=O)N[C@@H](Cc1ccccc1)C(=O)N[C@@H](CC(C)C)C(=O)O` [Example 4]: on ERAP1 [1], the “formation rate of KIFGSLAFL (SEQ ID NO: 53)(%)” value amounted to 0%. In the case of `CC[C@H](C)[C@H](NC(=O)[C@H](CCCCN)NC(=O)[C@H](CC(=O)O)NC(=O)[C@@H](N)CS)C(=O)N[C@@H](Cc1ccccc1)C(=O)NCC(=O)N[C@@H](CO)C(=O)N[C@@H](CC(C)C)C(=O)N[C@@H](C)C(=O)N[C@@H](Cc1ccccc1)C(=O)N[C@@H](CC(C)C)C(=O)O` [Example 5], the “formation rate of KIFGSLAFL (SEQ ID NO: 53)(%)” value on ERAP1 [1] is on record as 0%.

`CC[C@H](C)[C@H](NC(=O)[C@H](CCCCN)NC(=O)CNC(=O)[C@@H](N)CS)C(=O)N[C@@H](Cc1ccccc1)C(=O)NCC(=O)N[C@@H](CO)C(=O)N[C@@H](CC(C)C)C(=O)N[C@@H](C)C(=O)N[C@@H](Cc1ccccc1)C(=O)N[C@@H](CC(C)C)C(=O)O` [Example 8]: on ERAP1 [1], the “formation rate of KIFGSLAFL (SEQ ID NO: 53)(%)” value was determined as 0%.

`CC[C@H](C)[C@H](NC(=O)[C@H](CCCCN)NC(=O)[C@@H]1CCCN1C(=O)[C@@H](N)CS)C(=O)N[C@@H](Cc1ccccc1)C(=O)NCC(=O)N[C@@H](CO)C(=O)N[C@@H](CC(C)C)C(=O)N[C@@H](C)C(=O)N[C@@H](Cc1ccccc1)C(=O)N[C@@H](CC(C)C)C(=O)O` [Example 15]: the “formation rate of KIFGSLAFL (SEQ ID NO: 53)(%)” value at ERAP1 [1] is reported as 0%. For `CC[C@H](C)[C@H](NC(=O)[C@H](CCCCN)NC(=O)[C@H](CS)NC(=O)[C@@H](N)CCCNC(=N)N)C(=O)N[C@@H](Cc1ccccc1)C(=O)NCC(=O)N[C@@H](CO)C(=O)N[C@@H](CC(C)C)C(=O)N[C@@H](C)C(=O)N[C@@H](Cc1ccccc1)C(=O)N[C@@H](CC(C)C)C(=O)O` [Example 32], the “formation rate of KIFGSLAFL (SEQ ID NO: 53)(%)” value on ERAP1 [2] stood at 0.0%. Still for that read-out and setting: as for `CC[C@H](C)[C@H](NC(=O)[C@H](CCCCN)NC(=O)[C@H](CS)NC(=O)[C@@H](N)Cc1c[nH]cn1)C(=O)N[C@@H](Cc1ccccc1)C(=O)NCC(=O)N[C@@H](CO)C(=O)N[C@@H](CC(C)C)C(=O)N[C@@H](C)C(=O)N[C@@H](Cc1ccccc1)C(=O)N[C@@H](CC(C)C)C(=O)O` [Example 38], the figure is 0.0%; as for `CC[C@H](C)[C@H](NC(=O)[C@H](CCCCN)NC(=O)[C@H](CS)NC(=O)[C@@H](N)CCCCN)C(=O)N[C@@H](Cc1ccccc1)C(=O)NCC(=O)N[C@@H](CO)C(=O)N[C@@H](CC(C)C)C(=O)N[C@@H](C)C(=O)N[C@@H](Cc1ccccc1)C(=O)N[C@@H](CC(C)C)C(=O)O` [Example 41], 0.0%; as for `CC[C@H](C)[C@H](NC(=O)[C@H](CCCCN)NC(=O)[C@H](CS)NC(=O)[C@@H](N)Cc1c[nH]c2ccccc12)C(=O)N[C@@H](Cc1ccccc1)C(=O)NCC(=O)N[C@@H](CO)C(=O)N[C@@H](CC(C)C)C(=O)N[C@@H](C)C(=O)N[C@@H](Cc1ccccc1)C(=O)N[C@@H](CC(C)C)C(=O)O` [Example 47], 0.9%. As for `CC[C@H](C)[C@H](NC(=O)[C@H](CCCCN)NC(=O)[C@H](CC(C)C)NC(=O)[C@H](Cc1c[nH]cn1)NC(=O)[C@H](CCC(=O)O)NC(=O)[C@H](CCSC)NC(=O)CNC(=O)[C@H](CC(=O)O)NC(=O)[C@H](Cc1ccc(O)cc1)NC(=O)[C@H](CC(C)C)NC(=O)CN)C(=O)N[C@@H](Cc1ccccc1)C(=O)NCC(=O)N[C@@H](CO)C(=O)N[C@@H](CC(C)C)C(=O)N[C@@H](C)C(=O)N[C@@H](Cc1ccccc1)C(=O)N[C@@H](CC(C)C)C(=O)O` [SEQ ID NO: 231], in test [3] (setting [5]), the “number of cells that responded to SEQ ID NO: 19 compared to mouse administered with the compound of formula (4)” value is “small” and the “number of cells that responded to SEQ ID NO: 53 compared to mouse administered with the compound of formula (4)” value is “very small”. In test [3], the “IFNγ production specific to the peptide of interest shown by SEQ ID NO: 19” value (from here on “IFNγ production specific … by SEQ ID NO: 19”) is listed as “detected” and the “IFNγ production specific to the peptide of interest shown by SEQ ID NO: 53” value (from here on “IFNγ production specific … by SEQ ID NO: 53”) was “detected”. On to `CC[C@H](C)[C@H](NC(=O)[C@@H](N)CCCCN)C(=O)N[C@@H](Cc1ccccc1)C(=O)NCC(=O)N[C@@H](CO)C(=O)N[C@@H](CC(C)C)C(=O)N[C@@H](C)C(=O)N[C@@H](Cc1ccccc1)C(=O)N[C@@H](CC(C)C)C(=O)NCC(=O)N[C@@H](CC(C)C)C(=O)N[C@@H](Cc1ccc(O)cc1)C(=O)N[C@@H](CC(=O)O)C(=O)NCC(=O)N[C@@H](CCSC)C(=O)N[C@@H](CCC(=O)O)C(=O)N[C@@H](Cc1c[nH]cn1)C(=O)N[C@@H](CC(C)C)C(=O)O` [SEQ ID NO: 232], for which the “number of cells that responded to SEQ ID NO: 53 compared to mouse administered with the compound of formula (4)” value in test [3] (setting [5]) is reported as “very small”. Also, in test [3], the “IFNγ production specific … by SEQ ID NO: 19” value was “detected” and the “IFNγ production specific … by SEQ ID NO: 53” value is listed as “detected”.

Turning to `CC[C@H](C)[C@H](NC(=O)[C@H](CCCCN)NC(=O)CNC(=O)CNC(=O)CNC(=O)CNC(=O)CNC(=O)CNC(=O)[C@H](CC(C)C)NC(=O)[C@H](Cc1c[nH]cn1)NC(=O)[C@H](CCC(=O)O)NC(=O)[C@H](CCSC)NC(=O)CNC(=O)[C@H](CC(=O)O)NC(=O)[C@H](Cc1ccc(O)cc1)NC(=O)[C@H](CC(C)C)NC(=O)CN)C(=O)N[C@@H](Cc1ccccc1)C(=O)NCC(=O)N[C@@H](CO)C(=O)N[C@@H](CC(C)C)C(=O)N[C@@H](C)C(=O)N[C@@H](Cc1ccccc1)C(=O)N[C@@H](CC(C)C)C(=O)O` [SEQ ID NO: 233], in test [4], the “number of cells that responded to SEQ ID NO: 53 compared to mouse administered with the compound of formula (4)” value was “very small”, the “IFNγ production specific … by SEQ ID NO: 19” value was “detected” and the “IFNγ production specific … by SEQ ID NO: 53” value is “detected”. With `CC[C@H](C)[C@H](NC(=O)[C@@H](N)CCCCN)C(=O)N[C@@H](Cc1ccccc1)C(=O)NCC(=O)N[C@@H](CO)C(=O)N[C@@H](CC(C)C)C(=O)N[C@@H](C)C(=O)N[C@@H](Cc1ccccc1)C(=O)N[C@@H](CC(C)C)C(=O)NCC(=O)NCC(=O)NCC(=O)NCC(=O)NCC(=O)NCC(=O)NCC(=O)N[C@@H](CC(C)C)C(=O)N[C@@H](Cc1ccc(O)cc1)C(=O)N[C@@H](CC(=O)O)C(=O)NCC(=O)N[C@@H](CCSC)C(=O)N[C@@H](CCC(=O)O)C(=O)N[C@@H](Cc1c[nH]cn1)C(=O)N[C@@H](CC(C)C)C(=O)O` [SEQ ID NO: 234], in test [4], the “number of cells that responded to SEQ ID NO: 53 compared to mouse administered with the compound of formula (4)” value is reported as “very small”, the “IFNγ production specific … by SEQ ID NO: 19” value is recorded as “detected” and the “IFNγ production specific … by SEQ ID NO: 53” value is “detected”.
